Reference: patent US7691374B2, “Method for increasing the efficacy of anti-tumor agents by anti-endoglin antibody” (Health Research, Inc., priority 2002, dated 2010)

Test system: MCF-7 human breast cancer tumors
Settings: mouse, in vivo

`O=P1(N(CCCl)CCCl)NCCCO1` (stereo not shown) [CPA, cyclophosphamide] was tested, and the tumor suppression was “effective for tumor suppression”.
